We go through one molecule from patent US10787424B2, “Oxopiperazine helix mimetics for control of Hypoxia-Inducible gene expression” (NEW YORK UNIVERSITY, priority 2014, dated 2020).

By UniProt entry, the sequences of proteins in these tests, tags left out. Residues count along the entry.
UniProt Q09472, 323-423 limits assumed: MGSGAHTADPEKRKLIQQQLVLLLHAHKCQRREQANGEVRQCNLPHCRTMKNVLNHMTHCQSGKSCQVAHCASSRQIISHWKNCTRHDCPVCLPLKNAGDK
UniProt Q00987, whole entry: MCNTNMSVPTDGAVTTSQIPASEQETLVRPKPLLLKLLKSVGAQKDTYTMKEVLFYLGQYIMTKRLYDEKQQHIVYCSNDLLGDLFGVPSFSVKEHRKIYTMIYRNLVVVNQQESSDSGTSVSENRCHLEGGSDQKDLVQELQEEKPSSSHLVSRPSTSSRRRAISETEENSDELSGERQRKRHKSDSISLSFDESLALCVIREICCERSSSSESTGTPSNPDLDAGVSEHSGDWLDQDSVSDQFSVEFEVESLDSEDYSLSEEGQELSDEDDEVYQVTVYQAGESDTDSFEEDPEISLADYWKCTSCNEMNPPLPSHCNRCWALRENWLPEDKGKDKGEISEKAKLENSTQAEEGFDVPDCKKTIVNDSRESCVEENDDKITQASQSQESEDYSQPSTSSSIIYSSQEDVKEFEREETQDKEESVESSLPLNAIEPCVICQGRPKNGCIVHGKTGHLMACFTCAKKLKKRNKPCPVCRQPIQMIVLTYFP

One may read the Kd as the equilibrium constant for the complex coming apart.

Experiment [1] concerns the target human p300 CH1 domain (p300-CH1) (Homo sapiens, UniProt Q09472). The experiment can be described thus: Tryptophan fluorescence binding assay for p300-CH1. The settings on record: read-out: p300 Kd; cross-specificity, p300-CH1 (Table 9). The text has this: The DNA sequence of the human p300 CH1 domain (amino acid residues 323-423) was subcloned into a pUC57 plasmid by Genscript, Inc. After transformation of JM109 bacteria (Promega) with the plasmid, it was amplified and purified. Then the gene of interest was subcloned between BamHI and EcoRI restriction sites of pGEX-4T-2 expression vector (Amersham).
The pGEX-4T-2-p300 fusion vector was transformed into BL21(DE3) competent E.coli (Novagen) in M9 minimal media with ^15NH4Cl as the primary nitrogen source. Protein production was induced with 1 mM IPTG at OD600 of 1 for 16 hours at 15° C. Production of the desired p300-CH1-GST fusion product was verified by SDS-PAGE. […]
Relative affinities of OHMs for p300-CH1 were determined using a tryptophan fluorescence binding assay. Spectra were recorded on a QuantaMaster 40 spectrofluorometer (Photon Technology International) in a 10 mm quartz fluorometer cell at 25° C. with 4 nm excitation and 4 nm emission slit widths from 200 to 400 nm at intervals of 1 nm/s. Samples were excited at 295 nm and fluorescence emission was measured from 200-400 nm and recorded at 335 nm. […] Background absorbance and sample dilution effects were corrected by titrating DMSO into p300-CH1 in an analogous manner. […]

In the next experiment the target is His6-tagged Mdm2 (Homo sapiens, UniProt Q00987). The experiment can be described thus: Competitive fluorescence polarization assay with Flu-p53 as a probe. The settings on record: read-out: Mdm2 Kd; cross-specificity, Mdm2, Flu-p53 probe (Table 9). It counts as binding. The text has this: FIGS. 11A-B are graphs of oxopiperazine analog binding to His6-tagged Mdm2 determined by a fluorescence-polarization assay (FIG. 11A) and to p300-CH1 determined by tryptophan fluorescence spectroscopy (FIG. 11B).
A general note: In fluorescence polarisation assays a small probe gives low polarisation when free and higher when bound to something large.

With `CC(C)C[C@@H](C(N)=O)N1CCN(C(=O)[C@H](Cc2c[nH]c3ccccc23)N2CCN[C@@H](Cc3cccc(Cl)c3)C2=O)[C@@H](Cc2ccccc2)C1=O`, the Kd was over 30000 nM in experiment [1] and 300 nM on His6-tagged Mdm2.
